In experiment [1] the target is Propionibacterium acnes endo-α-GalNAcase EngPA (YP_056270.1), SEQ ID NO:3 (Cutibacterium acnes, UniProt A0ABM7H013). Briefly: Steady-state enzyme kinetics of EngPA. Conditions: Core 1 substrate; 25° C.; average of three measurements.
For experiment [2], the target named is Enterococcus faecalis endo-α-GalNAcase EngEF (NP_815498.1), SEQ ID NO:2 (Enterococcus faecalis, UniProt Q833X5). The experiment can be described thus: Steady-state enzyme kinetics of EngEF. Particulars: Core 1 substrate; 25° C.; average of three measurements.

For orientation: kcat means the number of substrate molecules converted per active site and unit of time at saturation. In the case of `CC(=O)N[C@H]1[C@@H](Oc2ccc([N+](=O)[O-])cc2)O[C@H](CO)[C@H](O)[C@@H]1O[C@@H]1O[C@H](CO)[C@H](O)[C@H](O)[C@H]1O` [Galβ1,3GalNAcα1ρNP], the kcat in experiment [1] was found to be 2.009 s⁻¹; in experiment [2] it was 51.17 s⁻¹.

The record behind these values is US8969034B2, “Endoglycosidases that cleave O-linked glycans” (New England Biolabs, Inc., priority 2008, dated 2015).
